Values of other authors, collected in patent publication US20220304945A1, “METHODS OF TREATING METABOLIC SYNDROME RELATED CONDITIONS USING RETINOIC ACID RECEPTOR AGONISTS” (Cornell University, priority 2014, published 2022).

Amino acid sequences for entries named in this document (tags omitted). Residues count along the entry.
UniProt P10826, 1-448 isoform 2: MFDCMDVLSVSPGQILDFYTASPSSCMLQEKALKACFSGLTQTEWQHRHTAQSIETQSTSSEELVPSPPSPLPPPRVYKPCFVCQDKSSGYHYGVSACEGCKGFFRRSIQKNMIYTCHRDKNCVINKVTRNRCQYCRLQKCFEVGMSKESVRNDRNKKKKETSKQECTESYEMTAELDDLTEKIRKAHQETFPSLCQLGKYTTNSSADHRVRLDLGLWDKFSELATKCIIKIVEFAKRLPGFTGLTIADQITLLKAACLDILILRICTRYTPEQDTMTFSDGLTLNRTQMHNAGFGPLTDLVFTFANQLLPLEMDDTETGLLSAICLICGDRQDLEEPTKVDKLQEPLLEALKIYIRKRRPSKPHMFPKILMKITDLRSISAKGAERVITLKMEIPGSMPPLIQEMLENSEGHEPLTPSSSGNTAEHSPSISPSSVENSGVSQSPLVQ

target: RARβ2 (Homo sapiens, UniProt P10826); conditions: from Table 1 and Table 2 of WO2007/009083; cited from earlier work

| SMILES | % Eff. | pEC50 |
| --- | --- | --- |
| CCCCCCCc1ccc(-c2ccc(C(=O)OCCc3ccccn3)c(F)c2)cc1 | 95% | 7.71 |
| CCCCCCCCOc1ccc(-c2ccc(C(=O)OCc3ccco3)cc2)cc1 | 67% | 6.67 |
| CCCCCCCCc1ccc(-c2ccc(C(=O)OCCc3ccccn3)c(F)c2)cc1 | – | 7.79 |
| CCCCCCCCOc1ccc(-c2ccc(C(=O)OCCC#N)cc2)cc1 | 46% | 6.71 |
| CCCCCCCCc1ccc(-c2ccc(C(=O)OCCC#N)cc2)cc1 | 71% | 6.95 |
| CCCCCCCc1ccc(-c2ccc(C(=O)OCCC#N)cc2)cc1 | 36% | 7.28 |
| CCCCCCCOc1ccc(-c2ccc(C(=O)OCCc3ccccn3)cc2)cc1 | 62% | 7.04 |
| CCCCCCOc1ccc(-c2ccc(C(=O)OCc3ccco3)cc2)cc1 | 25% | 6.75 |
| CCCCCCCCc1ccc(-c2ccc(C(=O)OCc3ccco3)cc2)cc1 | 49% | 6.56 |
